This is an account of results in patent publication US11618753B2 (priority 2018, dated 2023).

Chains of the proteins cited; added tags and fusions are not shown. Lines headed by an entry give the natural chain unless they say otherwise; changes in a name come on top.
UniProt O00329: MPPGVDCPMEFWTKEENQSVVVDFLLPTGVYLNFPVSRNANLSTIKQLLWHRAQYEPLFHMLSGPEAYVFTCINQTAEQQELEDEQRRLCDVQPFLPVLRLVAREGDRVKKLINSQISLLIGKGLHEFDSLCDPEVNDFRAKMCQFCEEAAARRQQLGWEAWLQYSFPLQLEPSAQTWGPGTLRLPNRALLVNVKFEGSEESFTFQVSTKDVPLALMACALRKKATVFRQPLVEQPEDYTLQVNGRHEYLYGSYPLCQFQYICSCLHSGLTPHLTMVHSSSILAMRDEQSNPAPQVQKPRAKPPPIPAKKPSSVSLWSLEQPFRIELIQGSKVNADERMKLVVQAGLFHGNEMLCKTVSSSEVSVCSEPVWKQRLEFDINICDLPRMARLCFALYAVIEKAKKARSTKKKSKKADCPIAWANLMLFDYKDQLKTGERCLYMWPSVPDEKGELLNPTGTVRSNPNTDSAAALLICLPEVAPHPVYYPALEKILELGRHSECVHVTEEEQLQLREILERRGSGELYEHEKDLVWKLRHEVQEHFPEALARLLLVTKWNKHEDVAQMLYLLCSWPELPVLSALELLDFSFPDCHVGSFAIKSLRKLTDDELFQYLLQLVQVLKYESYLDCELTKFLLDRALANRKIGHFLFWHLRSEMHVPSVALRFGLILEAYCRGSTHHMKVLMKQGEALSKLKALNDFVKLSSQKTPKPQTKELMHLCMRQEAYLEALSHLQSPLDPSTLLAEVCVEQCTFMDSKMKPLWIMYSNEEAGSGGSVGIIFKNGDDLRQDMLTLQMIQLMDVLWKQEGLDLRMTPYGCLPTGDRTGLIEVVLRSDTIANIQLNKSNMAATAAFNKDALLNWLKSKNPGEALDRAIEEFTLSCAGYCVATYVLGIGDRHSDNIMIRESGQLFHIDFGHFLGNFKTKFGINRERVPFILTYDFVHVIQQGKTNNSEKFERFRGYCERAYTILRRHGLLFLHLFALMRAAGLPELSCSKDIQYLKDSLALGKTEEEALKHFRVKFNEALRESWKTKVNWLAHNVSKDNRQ

pIC50: −log10 of the molar value.

The target in this assay is GST-tagged PIK3Cδ in complex with PIK3R1 (Homo sapiens (Human), UniProt O00329). In words: biochemical.
The pIC50 is −log10 of the IC50, conventionally taken in molar units. Low values mean a high IC50, high ones a low IC50. Regarding `Nc1ncnn2c(-c3ccc(Cl)c(C(=O)N[C@@H]4CN(C(=O)C5(F)CC5)C[C@@H]4F)c3)cc(CN3CCC(C(F)(F)F)CC3)c12` [Example 1149, 5-(4-amino-5-{[4-(trifluoromethyl)piperidin-1-yl]methyl}pyrrolo[2,1-f][1,2,4]triazin-7-yl)-2-chloro-N-[(3R,4S)-4-fluoro-1-(1-fluorocyclopropanecarbonyl)pyrrolidin-3-yl]benzamide], the pIC50 was < 5.30. To `CC(CC(=O)N1C[C@H](F)[C@H](NC(=O)c2cc(-c3cc(CN4CCC(C(F)(F)F)CC4)c4c(N)ncnn34)ccc2Cl)C1)C(F)(F)F` (stereo partly drawn) [Example 1150, 5-(4-amino-5-{[4-(trifluoromethyl)piperidin-1-yl]methyl}pyrrolo[2,1-f][1,2,4]triazin-7-yl)-2-chloro-N-[(3R,4S)-4-fluoro-1-(4,4,4-trifluoro-3-methylbutanoyl)pyrrolidin-3-yl]benzamide] belongs < 4.82; to `Nc1ncnn2c(-c3ccc(Cl)c(C(=O)N[C@@H]4CN(C(=O)C5CC(F)C5)C[C@@H]4F)c3)cc(CN3CCC(C(F)(F)F)CC3)c12` (stereo partly drawn) [Example 1151, 5-(4-amino-5-{[4-(trifluoromethyl)piperidin-1-yl]methyl}pyrrolo[2,1-f][1,2,4]triazin-7-yl)-2-chloro-N-[(3R,4S)-4-fluoro-1-(3-fluorocyclobutanecarbonyl)pyrrolidin-3-yl]benzamide], < 4.82; to `CC(C)(F)C(=O)N1C[C@H](F)[C@H](NC(=O)c2cc(-c3cc(CN4CCC(C(F)(F)F)CC4)c4c(N)ncnn34)ccc2Cl)C1` [Example 1152, 5-(4-amino-5-{[4-(trifluoromethyl)piperidin-1-yl]methyl}pyrrolo[2,1-f][1,2,4]triazin-7-yl)-2-chloro-N-[(3R,4S)-4-fluoro-1-(2-fluoro-2-methylpropanoyl)pyrrolidin-3-yl]benzamide], < 4.82. The result for `CC(O)(CC(=O)N1C[C@H](F)[C@H](NC(=O)c2cc(-c3cc(CN4CCC(C(F)(F)F)CC4)c4c(N)ncnn34)ccc2Cl)C1)C(F)(F)F` (stereo partly drawn) [Example 1153, 5-(4-amino-5-{[4-(trifluoromethyl)piperidin-1-yl]methyl}pyrrolo[2,1-f][1,2,4]triazin-7-yl)-2-chloro-N-[(3R,4S)-4-fluoro-1-(4,4,4-trifluoro-3-hydroxy-3-methylbutanoyl)pyrrolidin-3-yl]benzamide] reads < 4.82; that for `CC(C)CC(=O)N1C[C@H](F)[C@H](NC(=O)c2cc(-c3cc(CN4CCC(C(F)(F)F)CC4)c4c(N)ncnn34)ccc2Cl)C1` [Example 1154, 5-(4-amino-5-{[4-(trifluoromethyl)piperidin-1-yl]methyl}pyrrolo[2,1-f][1,2,4]triazin-7-yl)-2-chloro-N-[(3R,4S)-4-fluoro-1-(3-methylbutanoyl)pyrrolidin-3-yl]benzamide], < 4.82; that for `Nc1ncnn2c(-c3ccc(Cl)c(C(=O)N[C@@H]4CN(C(=O)C5CC(F)(F)C5)C[C@@H]4F)c3)cc(CN3CCC(C(F)(F)F)CC3)c12` [Example 1157], < 4.82.

For the molecule `Nc1ncnn2c(-c3ccc(Cl)c(C(=O)N[C@@H]4CN(C(=O)c5ccccc5F)C[C@@H]4F)c3)cc(CN3CCC(C(F)(F)F)CC3)c12` [Example 1158, 5-(4-amino-5-{[4-(trifluoromethyl)piperidin-1-yl]methyl}pyrrolo[2,1-f][1,2,4]triazin-7-yl)-2-chloro-N-[(3R,4S)-4-fluoro-1-(2-fluorobenzoyl)pyrrolidin-3-yl]benzamide], the pIC50 was < 4.82. To `C[C@@](O)(C(=O)N1C[C@H](F)[C@H](NC(=O)c2cc(-c3cc(CN4CCC(C(F)(F)F)CC4)c4c(N)ncnn34)ccc2Cl)C1)C(F)(F)F` [Example 1159, 5-(4-amino-5-{[4-(trifluoromethyl)piperidin-1-yl]methyl}pyrrolo[2,1-f][1,2,4]triazin-7-yl)-2-chloro-N-[(3R,4S)-4-fluoro-1-[(2R)-3,3,3-trifluro-2-hydroxy-2-methylpropanoyl]pyrrolidin-3-yl]benzamide] belongs < 4.82; to `Nc1ncnn2c(-c3ccc(Cl)c(C(=O)N[C@@H]4CN(C(=O)C5CCC(F)(F)CC5)C[C@@H]4F)c3)cc(CN3CCC(C(F)(F)F)CC3)c12` [Example 1160, 5-(4-amino-5-{[4-(trifluoromethyl)piperidin-1-yl]methyl}pyrrolo[2,1-f][1,2,4]triazin-7-yl)-2-chloro-N-[(3R,4S)-1-(4,4-difluorocyclohexanecarbonyl)-4-fluoropyrrolidin-3-yl]benzamide], < 4.82. In the case of `Nc1ncnn2c(-c3ccc(Cl)c(C(=O)N[C@@H]4CN(C(=O)C5CCC(F)(F)C5)C[C@@H]4F)c3)cc(CN3CCC(C(F)(F)F)CC3)c12` (stereo partly drawn) [Example 1161, 5-(4-amino-5-{[4-(trifluoromethyl)piperidin-1-yl]methyl}pyrrolo[2,1-f][1,2,4]triazin-7-yl)-2-chloro-N-[(3R,4S)-1-(3,3-difluorocyclopentanecarbonyl)-4-fluoropyrrolidin-3-yl]benzamide], the pIC50 is < 4.82.

As to `CC(C(=O)N1C[C@H](F)[C@H](NC(=O)c2cc(-c3cc(CN4CCC(C(F)(F)F)CC4)c4c(N)ncnn34)ccc2Cl)C1)C(F)(F)F` (stereo partly drawn) [Example 1162, 5-(4-amino-5-{[4-(trifluoromethyl)piperidin-1-yl]methyl}pyrrolo[2,1-f][1,2,4]triazin-7-yl)-2-chloro-N-[(3R,4S)-4-fluoro-1-(3,3,3-trifluoro-2-methylpropanoyl)pyrrolidin-3-yl]benzamide], the pIC50 was < 4.82. The result for `CCC(O)(C(=O)N1C[C@H](F)[C@H](NC(=O)c2cc(-c3cc(CN4CCC(C(F)(F)F)CC4)c4c(N)ncnn34)ccc2Cl)C1)C(F)(F)F` (stereo partly drawn) [Example 1163, 5-(4-amino-5-{[4-(trifluoromethyl)piperidin-1-yl]methyl}pyrrolo[2,1-f][1,2,4]triazin-7-yl)-2-chloro-N-[(3R,4S)-4-fluoro-1-[2-hydroxy-2-(trifluoromethyl)butanoyl]pyrrolidin-3-yl]benzamide] reads < 4.82; that for `Nc1ncnn2c(-c3cccc(C(=O)N[C@@H]4CN(C(=O)C5CC(F)C5)C[C@@H]4F)c3)cc(CN3CC(F)(F)C3)c12` (stereo partly drawn) [Example 1174, 3-{4-amino-5-[(3,3-difluoroazetidin-1-yl)methyl]pyrrolo[2,1-f][1,2,4]triazin-7-yl}-N-[(3R,4S)-4-fluoro-1-(3-fluorocyclobutanecarbonyl)pyrrolidin-3-yl]benzamide], 6.03; that for `Nc1ncnn2c(-c3cccc(C(=O)N[C@@H]4CN(C(=O)C5CC(F)C5)C[C@@H]4F)c3)cc(CN3CC(F)(F)C3)c12` (stereo partly drawn) [Example 1175, 3-{4-amino-5-[(3,3-difluoroazetidin-1-yl)methyl]pyrrolo[2,1-f][1,2,4]triazin-7-yl}-N-[(3R,4S)-4-fluoro-1-(3-fluorocyclobutanecarbonyl)pyrrolidin-3-yl]benzamide], 6.03. To `COc1ncc(-c2cc(C(F)(F)F)c3c(N)ncnn23)cc1C(=O)N[C@@H]1CN(C(=O)CC(O)(C(F)(F)F)C(F)(F)F)C[C@@H]1F` [Example 1220, 5-[4-amino-5-(trifluoromethyl)pyrrolo[2,1-f][1,2,4]triazin-7-yl]-N-[(3R,4S)-4-fluoro-1-[4,4,4-trifluoro-3-hydroxy-3-(trifluoromethyl)butanoyl]pyrrolidin-3-yl]-2-methoxypyridine-3-carboxamide] belongs < 4.82.
